Experimental findings from published antibiotic growth screens (doi:10.1038/s41589-023-01349-8) are described below.

Each structure is given as a SMILES string. This is one part of the list.

This experiment deals with A. baumannii ATCC 17978. The experiment can be described thus: relative growth (fraction of control); higher = less inhibition. The note with it: 50 µM.
`N=C(N)NOCC[C@H](N)C(=O)O`: the relative growth came to 0.864. Take `O=C(O)[C@H]1[C@H](C(=O)O)[C@H]2CC[C@@H]1O2`: the relative growth was found to be 1.04. In turn, `c1ccc2c(c1)[nH]c1cnccc12` yielded a relative growth of 0.791. The compound `COc1ccc(OC)c(C(O)C(C)N)c1.Cl` (stereo not drawn) returned a relative growth of 1.29.

Take `CNC(C)(C)Cc1ccccc1.O=S(=O)(O)O`: the relative growth is 0.929. `C[C@@]12C(=O)OC(=O)[C@]1(C)[C@H]1CC[C@@H]2O1`: the relative growth came to 1.1.

In turn, `Br.CN1C2CC(O)[C@H]1C[C@@H](OC(=O)[C@H](CO)c1ccccc1)C2` (mixture of isomers) had a relative growth of 0.994. Turning to `NCCc1ccc([N+](=O)[O-])cc1`, the relative growth was determined as 0.986. The figure for `NCCCNCCSP(=O)(O)O` is 1.13; for `O=[N+]([O-])c1ccc(O)c([N+](=O)[O-])c1` it is 0.704. In turn, `COc1cc(C(=O)O)cc(OC)c1OC` showed a relative growth of 0.863.

Compound `C=CC[C@]1(O)CCC2[C@@H]3CCC4=CCCC[C@@H]4C3CC[C@@]21C` (stereo partly drawn) yielded a relative growth of 1.37. For `Nc1ccc(-c2ccc(N)cc2)cc1` the value was 0.951; for `Cc1cc(OC(=O)N(C)C)cc(=O)n1C`, 1.03. Compound `CC(C)c1ccc2c(c1O)CC[C@H]1C3=C(CC[C@]21C)C(=O)OC3` registered a relative growth of 0.834.

`Nc1ccc([As](=O)(O)O)cc1` showed a relative growth of 1.02. On to `CC(C)c1cc2c(c(O)c1O)[C@@]1(C(=O)O)CCCC(C)(C)C1CC2` (stereo partly drawn), for which the relative growth was found to be 0.997. `COP(=S)(OC)Oc1cc(Cl)c(Cl)cc1Cl` came in with a relative growth of 0.155. On to `COc1cc2occc2c2oc(=O)ccc12`, for which the relative growth worked out at 1.47. In the case of `CCCCCCCCC(=O)NCc1ccc(O)c(OC)c1`, the relative growth was 0.825. In the case of `COc1c2c(cc3c1OCO3)CC[N+](C)=C2.[Cl-]`, the relative growth came out at 1.11. The figure for `CN1C(=O)C(O)N=C(c2ccccc2)c2cc(Cl)ccc21` (stereo not drawn) is 1.34; for `CCOc1ccc(N2CCNCC2)nn1` it is 0.991.

Compound `O=C1CNC[C@@H]2c3cccc(F)c3CCN12` registered a relative growth of 0.96. `CN1C2CCC1CC(OC(=O)C(CO)c1ccccc1)C2` (stereo not drawn) displayed a relative growth of 1.23.

The compound `O=C(O)C[C@@H]1CC[C@H]2NC[C@@H](O)COC[C@@H]2O1` registered a relative growth of 0.943. Take `COc1cccc2c1cc([N+](=O)[O-])c1c(C(=O)O)cc3c(c12)OCO3`: the relative growth was determined as 1.04.

`N=C(N)/N=C(\N)Nc1ccc(Cl)cc1`: the relative growth came out at 0.793.

With `Cc1cc2c(C(C)C)c(O)c(O)c(C=O)c2c(O)c1-c1c(C)cc2c(C(C)C)c(O)c(O)c(C=O)c2c1O`, the relative growth came to 1.09.

`CC(=O)Nc1cc([As](=O)(O)O)ccc1O`: the relative growth amounted to 1.07. Compound `O=[N+]([O-])O[C@@H]1CO[C@H]2[C@@H]1OC[C@@H]2O` gave a relative growth of 0.998. In turn, `NC[C@H]1CCCc2ccc(Cl)cc21` returned a relative growth of 0.784. `O=c1[nH]c2ccccc2n1C1CCN(CCCC(c2ccc(F)cc2)c2ccc(F)cc2)CC1` gave a relative growth of 0.299. The compound `Cl.Cn1c(CCCC(=O)O)nc2cc(N(CCCl)CCCl)ccc21` yielded a relative growth of 0.977.

With `O=C1NC(=S)NC(=O)C1CN1CCOCC1`, the relative growth came to 1.01. For `[N-]=[N+]=NCc1ccccc1C[C@@]1(C(=O)NCCN2CCOCC2)N=C(c2ccc(OCCCO)cc2)O[C@@H]1c1ccccc1N=[N+]=[N-]` the value was 0.858; for `COc1cc2c(cc1OC)[C@@]13CCN4CC5=CCOC6CC(=O)N2C1[C@H]6[C@H]5C[C@H]43` (stereo partly drawn), 0.957. `O=[N+]([O-])NC1=NCCN1Cc1ccc(Cl)nc1` gave a relative growth of 1.02. On to `CC[C@@]1(C2O[C@@H](C3O[C@@](O)(CO)[C@H](C)C[C@@H]3C)C[C@@H]2C)CC[C@H]([C@]2(C)CCC3(C[C@H](O)[C@@H](C)[C@@H]([C@H](C)[C@@H](OC)[C@H](C)C(=O)[O-])O3)O2)O1.[Na+]` (stereo partly drawn), for which the relative growth amounted to 1.02. Compound `c1ccc(N2CCNCC2)nc1` came in with a relative growth of 0.989. `CCC(=O)O[C@H]1CCC2C3CCC4=CC(=O)CC[C@]4(C)C3CC[C@@]21C` (stereo partly drawn) came in with a relative growth of 1.2. Compound `CC[C@@H](C)C(=O)O[C@@H]1C[C@@]2(C)[C@H](c3ccoc3)OC(=O)C[C@]23O[C@@]2(C)O[C@]34[C@H](OC(=O)C(C)C)[C@@]3(O)[C@@H](OC(=O)[C@@]5(C)O[C@@H]5C)[C@@]5(C)C[C@]3(O)[C@@](C)([C@H]5CC(=O)OC)[C@@]14O2` came in with a relative growth of 1.08. With `CNC(=O)Oc1ccc2c(c1)[C@]1(C)CCN(C)[C@@H]1N2C`, the relative growth amounted to 1.06.

As for `NCCc1nc2ccccc2[nH]1`, the relative growth is 0.911.

In turn, `O.O.O.O=C([O-])C1[O][Sb]2[O]C(=O)C([O]2)C(C(=O)[O-])[O][Sb]2[O]C(=O)C1[O]2.[K+].[K+]` (stereo not drawn) displayed a relative growth of 0.948. In turn, `Cc1ccc(C[C@H]2CCCN2)cc1C` yielded a relative growth of 0.923. Compound `CN(C)C(=O)Oc1ccc[n+](C)c1.[Br-]` came in with a relative growth of 1.09. In the case of `CC1(C)C(=O)C=C[C@@]2(C)C1C[C@@H](O)[C@]1(C)C2CC[C@@]2(C)[C@H](c3ccoc3)OC(=O)[C@H]3O[C@]321` (stereo partly drawn), the relative growth came out at 1.02. For the compound `CC1(C)C2CC(=O)[C@]3(C)C(CC[C@@]4(C)[C@H](c5ccoc5)OC(=O)[C@H]5O[C@]543)[C@@]2(C)C(=O)C[C@H]1O` (stereo partly drawn), the relative growth came to 0.933. For `COc1ccc(C(=O)O)cc1OC` the value was 1.03; for `CN(C)C(=O)Oc1cccc([N+](C)(C)C)c1.COS(=O)(=O)[O-]`, 0.856; for `CC[C@@H](C)NC=C1C(=O)NC(=O)NC1=O`, 0.745. Compound `C[C@]12CC[C@](C)(O1)[C@H](C(=O)O)[C@@H]2C(=O)O` showed a relative growth of 0.997. Regarding `C[C@]12CCC(=O)C=C1C=CC1C2CC[C@@]2(C)C1CC[C@@]2(O)CCC(=O)[O-].[K+]` (stereo partly drawn), the relative growth turned out to be 0.934. As to `Cl.OC1CCCCC1N1CCC(c2ccccc2)CC1` (stereo not drawn), the relative growth was found to be 1.02. With `O.O=P1(N(CCCl)CCCl)NCCCO1` (stereo not drawn), the relative growth was 1.14. The figure for `O=c1c(O)c(-c2ccc(O)c(O)c2)oc2c(O)c(O)cc(O)c12` is 0.948; for `O=c1cccc2n1C[C@H]1CNC[C@H]2C1` it is 1.03. Consider `CNCC(O)c1ccc(O)cc1.CNCC(O)c1ccc(O)cc1.O=C(O)C(O)C(O)C(=O)O` (stereo not drawn), for which the relative growth came out at 1.08.

In turn, `COC(=O)[C@@H](N)CCCNC(N)=N[N+](=O)[O-]` had a relative growth of 0.897.

On to `CNC(=O)Oc1ccc2c(c1)[C@]1(C)CCN(C)[C@@H]1N2C.O=S(=O)(O)O`, for which the relative growth was 1.17. For `CNCC(O)c1ccc(O)cc1` (stereo not drawn) the value was 1.28; for `C#CCN(C)C(C)Cc1ccccc1.Cl` (stereo not drawn), 0.873. The compound `CN1CCCCC1c1ccc(-c2cccnc2)nc1.Cl` (stereo not drawn) displayed a relative growth of 1.07. With `CC(C)[C@@H]1NC[C@@H]2CCCN2C1=O`, the relative growth stood at 1.08. For `C/C=C(\C)C(=O)O[C@H]1C[C@@H](OC(C)=O)[C@@]2(C(=O)OC)CO[C@@H]3C2[C@]12CO[C@](O)(C(=O)OC)[C@H]2[C@](C)(C12O[C@@]1(C)[C@H]1C[C@@H]2OC2OC=C[C@@]21O)[C@@H]3O` (stereo partly drawn) the value was 0.89; for `C=C/C=C\CC1=C(C)[C@@H](OC(=O)[C@@H]2[C@@H](C=C(C)C)C2(C)C)CC1=O`, 1.28.

As for `CN(C)[C@@H](CN)c1cccc(C(F)(F)F)c1`, the relative growth was 1.06. The compound `C/C=C(/C)C(=O)O[C@H]1CC[C@@]2(C)[C@@H]3CC[C@H]4[C@]5(O)C[C@H](O)[C@@]6(O)[C@@H](CN7C[C@@H](C)CC[C@H]7[C@@]6(C)O)[C@]5(O)C[C@@]42O[C@]13O.Cl` showed a relative growth of 1.08. `O=C(O)C[C@H]1CC[C@@H]2NC[C@H](O)COC[C@H]2O1` showed a relative growth of 0.931. `CCOP(=S)(OCC)Oc1cc(C)nc(C(C)C)n1` returned a relative growth of 1.07.

For the compound `CCCN1C[C@H](CSC)C[C@@H]2c3cccc4[nH]cc(c34)CC21.CS(=O)(=O)O` (stereo partly drawn), the relative growth was 1.29. As to `CN1CCN(c2nc(=O)c3c([nH]2)CCCC3)CC1`, the relative growth was 0.843. Regarding `CC(NC(C)(C)C)C(=O)c1cccc(Cl)c1.Cl` (stereo not drawn), the relative growth worked out at 1.04. For `CNC(C)C(O)c1ccccc1.Cl` (stereo not drawn) the value was 1.18; for `COc1cc2c(cc1C=O)OCO2`, 0.973; for `O=C(NC(=O)c1ccccc1Cl)Nc1ccc(OC(F)(F)F)cc1`, 0.902.

In turn, `Cc1ccc(-n2nccn2)c(C(=O)N2CCN(c3nc4cc(Cl)ccc4o3)CC[C@H]2C)c1` showed a relative growth of 1.04. For `Cl.c1ccc2c(c1)OCC(C1=NCCN1)O2` (stereo not drawn) the value was 1.19; for `CCN(CC)CCOC(=O)C(O)(c1ccccc1)c1ccccc1.Cl`, 0.97; for `N[C@H]1C[C@@H]1c1ccccc1`, 0.995.

In turn, `COP(=S)(OC)Oc1ccc(Sc2ccc(OP(=S)(OC)OC)cc2)cc1` returned a relative growth of 1.2. In turn, `CCOP(=S)(OCC)Oc1nc(Cl)c(Cl)cc1Cl` came in with a relative growth of 1.06. For `O=c1[n-]c(=O)n(Cl)c(=O)n1Cl.[Na+]` the value was 1.07; for `CO/C1=C\C(C)=C\[C@@H](C)[C@@H](O)[C@@H](C)C/C(C)=C/C=C/[C@H](OC)[C@@H]([C@@H](C)[C@@H](O)[C@H](C)C(=O)/C=C/[C@H](C)[C@H](O)C(C)C)OC1=O`, 1.16; for `NC(=O)CS(=O)C(c1ccccc1)c1ccccc1` (stereo not drawn), 1.12. Compound `c1ccc2c(c1)sc1ccccc12` came in with a relative growth of 1.35. With `CC(C)CC1C(=O)N2CCC[C@H]2C2(O)O[C@](NC(=O)C3C=C4c5cccc6[nH]c(Br)c(c56)C[C@H]4N(C)C3)(C(C)C)C(=O)N12.CS(=O)(=O)O` (stereo partly drawn), the relative growth stood at 1.04. As to `CC(C)(CN)CNc1ccc([N+](=O)[O-])c2cccnc12`, the relative growth came to 0.955. For `CC[C@H]1CN2CCc3cc(OC)c(OC)cc3C2C[C@@H]1CC1NCCc2cc(OC)c(OC)cc21.Cl.Cl` (stereo partly drawn) the value was 0.884; for `CN1C(=O)CCS(=O)(=O)C1c1ccc(Cl)cc1` (stereo not drawn), 1.21. The compound `O=C(NC(O)C(Cl)(Cl)Cl)NC(O)C(Cl)(Cl)Cl` (stereo not drawn) registered a relative growth of 0.927. On to `CC(=O)NC1CCSC1=O` (stereo not drawn), for which the relative growth is 0.921. `O=C(O)Cc1cnc[nH]1` gave a relative growth of 0.981.

`C[C@]12CCC3c4ccc(OC(=O)N(CCCl)CCCl)cc4CCC3C1CC[C@@H]2O` (stereo partly drawn) registered a relative growth of 1.15. Compound `[N-]=[N+]=NCc1ccccc1C[C@]1(C(=O)NCCN2CCOCC2)N=C(c2ccc(OCCCO)cc2)O[C@H]1c1ccccc1N=[N+]=[N-]` returned a relative growth of 1.05. In the case of `CNC(=O)Oc1ccccc1OC(C)C`, the relative growth turned out to be 1.08. Compound `COC(=O)NC(=S)Nc1ccccc1NC(=S)NC(=O)OC` had a relative growth of 0.962. For `CCOP(=S)(OCC)Oc1ccc2c(C)c(Cl)c(=O)oc2c1` the value was 0.933; for `CO[C@@H]1C=C[C@@H]2[C@H]1N2CCCO` (stereo partly drawn), 0.926. With `[N-]=[N+]=Nc1ccccc1C[C@@]1(C(=O)NCc2ccccc2)N=C(c2ccc(OCCCO)cc2)O[C@@H]1c1ccccc1N=[N+]=[N-]`, the relative growth amounted to 1.2. The figure for `CC(CCc1ccccc1)NC(C)C(O)c1ccc(O)cc1.Cl` (stereo not drawn) is 0.939; for `CC(=O)O[C@H]1C(=O)[C@@]2(C)C([C@H](OC(=O)c3ccccc3)[C@]3(O)C[C@H](O)C(C)=C1C3(C)C)[C@]1(OC(C)=O)CO[C@@H]1C[C@@H]2O` (stereo partly drawn) it is 0.913.
